In the library only some 3.7% were active in any assay of this set; here they are far more common.
ClpP mod: qHTS Assay for Activators of ClpP | ATP-dependent Clp protease proteolytic subunit (Bacillus subtilis (strain 168)), P80244 | purified B. subtilis ClpP, FRET peptide cleavage, 20 min | Potency, µM (top dose mostly 57.5 µM), for the others: top-dose activity change, negative = active | 1.9% of 340,000 active | AID 651965, 2013; active = well fitted falling curve with a large enough effect; inconclusive = small, poorly fitted or top-dose-only effect; inactive = no such curve, though single readings can be large or run the other way; note: potency is the fitted concentration of half-maximal effect; the source files actives as falling curves though it sought activators and does not explain the sign; nearly all actives have a fitted effect of over 65% in size
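Buffer: 100 mM Tris/HCl pH8, 100 mM KCl, 0.05% low protease BSA, 2.5% glycerol, 0.01% Tween-20. ClpP 10 microg/mL final; 20 min RT; delta FRET normalized to ADEP and DMSO controls.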
Nrf2 inh: Nrf2 pathway inhibition. Potency, µM (doses to about 46 µM), for inactives: at the highest dose activity change, negative = inhibition, usual class: inhibitors. A549 ARE-Fluc reporter, luciferase luminescence, 18-24 h. 2.1% of 360,000 active; note: potency is the fitted concentration of half-maximal effect; % is set by controls: 0 for no effect and ±100 for the full control effect; nearly all actives have a fitted effect of over 60% in size
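A549 ARE_Fluc cells (5000/well, 5% FBS OPTI-MEM) pre-incubated 2 h, then treated with compounds 18-24 h at 37C/5% CO2 in concentration-response. CellTiter-Fluor viability read first; BugLite luciferase luminescence after 15 min at room temperature gives Nrf2 activity.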
Nrf2 ARE act: activators of Nrf2 (ARE) signaling; AREc32 ARE-luciferase reporter (MCF7-derived line), luminescence, 24 h; Potency, µM (series often up to 46.1 µM), inactives show at the top dose activation, hits mostly activators; 0.31% of 410,000 active; AID 624171; note: potency is the fitted concentration of half-maximal effect; % of control where 0% means no effect; nearly all actives have a fitted effect of over 65% in size
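For detection, Steady-Glo was added and plates sat 30 min at RT; before that, AREc32_Fluc cells grown overnight in OPTI-MEM/5% FBS had been treated with 23 nL compound for 24 hr at 37 deg C.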
A549 viability: counter-screen for Nrf2 inhibitors: cytotoxicity in A549 cells; A549 ARE-Fluc cells, CellTiter-Fluor viability, 18-24 h; Potency, µM (series often up to 46 µM), without a hit: top-dose activity change, negative = cytotoxicity, actives largely listed as inhibitors; 0.16% of 390,000 active; note: potency is the fitted concentration of half-maximal effect; % is set by controls: 0 for no effect and ±100 for the full control effect
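A549 ARE_Fluc cells in 5% FBS OPTI-MEM were exposed to compounds in concentration-response for 18-24 h at 37 deg C. Viability was read by CellTiter-Fluor fluorescence (Ex 405/Em 525) after 30 min, before the luciferase read.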
TCR act: activates T cell receptor signaling; primary human leukocytes, anti-CD3, IL-2 HTRF, 48 h; 330,000 tested, under 10 active; Potency, µM (doses to about 9.22 µM), inactives show top-dose activation of IL-2 secretion, most hits filed as activators; AID 504894; note: % of control where 0% means no effect
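Readout: HTRF IL-2, Eu-cryptate/d2 antibody pair, 320nm excitation, 665nm emission. Stimulus: a-CD3 beads, no co-stimulation. Cells: primary human leukocytes. Exposure: 48 hr with compound.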
miR-21 reporter: raises the signal of a miR-21 reporter | HeLa miR-21 FLuc reporter, luciferase, 48 h | Potency, µM (doses to about 38.3 µM), without a hit: at the top dose reporter change, positive = more light | 340,000 tested, under 10 active | AID 2288; active = well fitted rising curve with a large enough effect; inconclusive = small, poorly fitted or top-dose-only effect; inactive = no such curve, though single readings can be large or run the other way;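 note: % of control where 0% means no effect; miR-21 action dims this reporter so a rising signal means less miR-21 action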
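HeLa miR-21-FLuc reporter line, endogenous miR-21; 2000 cells/well in DMEM/10% FBS; compound titration up to ~40uM final, 48 h, 37 degree Celsius; luciferase detection reagent, 15 min lysis, CCD luminescence.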
Active calls of the source: *; ? = inconclusive; nt = no result; [ ] = remark or other dose. Unless noted, calls come from the whole dose curve; as a rule, active = well fitted curve in the direction sought with a large enough effect; inconclusive = small, poorly fitted or top-dose-only effect, or another doubt; inactive = no such curve, though single readings can be large; an effect the other way counts as inactive or inconclusive.

Letter code – A = ClpP mod; B = Nrf2 inh; C = Nrf2 ARE act; D = A549 viability; E = TCR act; F = miR-21 reporter
[1] O=C(CCl)N(Cc1cc(=O)[nH]c2ccccc12)c1ccccc1
  A = ?	B = 23µM*	C = -4%	D = -13%	E = 3%	F = ?
[2] CCC(=O)N(Cc1cc(=O)[nH]c2ccccc12)c1ccccc1
  A = nt	B = 3%	C = 0%	D = 6%	E = -6%	F = 3%
[3] CN1C2=CC=CC=CC2=[N+](C)C12C=CC(=[N+]([O-])[O-])C=C2[N+](=O)[O-] (stereo unspecified)
  A = nt	B = 23µM*	C = 3%	D = 18µM*	E = -9%	F = 1%
[4] CN1C2=CC=CC=CC2=[N+](C)C12C([N+](=O)[O-])=CC(=[N+]([O-])[O-])C=C2[N+](=O)[O-] (stereo unspecified)
  A = nt	B = -4%	C = ?	D = -26%	E = -14%	F = 1%
[5] O=C(CSc1nc2nn(-c3ccccc3)c(=O)c-2c2n1CCCCC2)Nc1ccccc1[N+](=O)[O-]
  A = 0%	B = -22%	C = 8%	D = -14%	E = 1%	F = nt
[6] CCOc1ccc(CCNC(=O)c2[nH]c3cc(OC)ccc3c2Sc2ccccc2)cc1OCC
  A = 22µM*	B = -11%	C = 0%	D = 1%	E = nt	F = -1%
[7] COc1ccc2c(Sc3ccc(C)cc3)c(C(=O)NCCc3ccccc3)[nH]c2c1
  A = -3%	B = 9%	C = 4%	D = 5%	E = nt	F = -28%
[8] CCCc1nnc(SCC(=O)Nc2cccc(Cl)c2Cl)o1
  A = nt	B = -6%	C = 0%	D = -4%	E = 0%	F = -14%
[9] O=c1[nH][nH]cc1C=Nc1ccc(Cl)cc1Cl
  A = -1%	B = 5%	C = 0%	D = 0%	E = -6%	F = 0%
[10] O=c1[nH][nH]cc1C=Nc1cc(Cl)ccc1O
  A = 1%	B = ?	C = 13µM*	D = -1%	E = -22%	F = 9%
[11] O=c1[nH][nH]cc1C=Nc1ccccc1O
  A = 2%	B = 25%	C = 13µM*	D = -10%	E = -2%	F = -6%
[12] COc1ccccc1N1CCN(C(=O)C2CCN(S(=O)(=O)c3cn(C)cn3)CC2)CC1
  A = 1%	B = nt	C = -1%	D = -10%	E = nt	F = 0%
[13] Cc1noc(/C=C/Nc2ccc(F)cc2F)c1[N+](=O)[O-]
  A = nt	B = 5%	C = 2.8µM*	D = -21%	E = 0%	F = -39%
[14] COc1ccccc1N/C=C/c1onc(C)c1[N+](=O)[O-]
  A = 2%	B = ?	C = -2%	D = ?	E = 2%	F = -25%
[15] CC(C)(C)c1ccc(C(=O)CCCSC2=C(C#N)C(c3ccco3)C3=C(CCCC3=O)N2)cc1 (stereo unspecified)
  A = -18%	B = 21µM*	C = 3%	D = 21µM*	E = 4%	F = -4%
[16] CN(c1cccc(NC(=O)c2ccc(Cl)c(S(=O)(=O)Nc3ccccc3)c2)c1)S(C)(=O)=O
  A = -2%	B = 21µM*	C = 3%	D = -21%	E = -11%	F = 15%
[17] Cc1ccccc1NS(=O)(=O)c1cc(C(=O)Nc2cccc(N(C)S(C)(=O)=O)c2)ccc1C
  A = 2%	B = 18µM*	C = 3%	D = ?	E = 1%	F = 16%
[18] Cc1ccc(SCCNC(=O)c2ccc(C)c(S(=O)(=O)Nc3ccccc3C)c2)cc1
  A = 0%	B = 13µM*	C = 2%	D = -17%	E = -1%	F = 25%
[19] Cc1ccc(NS(=O)(=O)c2cc3c(cc2F)NC(=O)CC3)cc1Cl
  A = nt	B = ?	C = nt	D = -17%	E = nt	F = nt
[20] COc1ccc(Cn2c(=O)c3oc4ccccc4c3n(Cc3cccc(C)c3)c2=O)cc1
  A = -11%	B = -9%	C = 2%	D = 7%	E = nt	F = 1%
[21] COc1ccc(C(=O)CC2(O)C(=O)N(CCc3ccccc3)c3ccc(Br)cc32)cc1OC (stereo unspecified)
  A = -2%	B = 23µM*	C = 6%	D = ?	E = nt	F = 29%
[22] O=C(CC1(O)C(=O)N(CCc2ccccc2)c2ccc(Br)cc21)c1ccc(F)cc1 (stereo unspecified)
  A = -3%	B = ?	C = -1%	D = -19%	E = nt	F = ?
[23] CCCCN1C(=O)C(O)(CC(=O)c2ccc(C)cc2C)c2cc(Br)ccc21 (stereo unspecified)
  A = 0%	B = 26µM*	C = -1%	D = ?	E = nt	F = 28%
[24] CC(Sc1ccc(S(=O)(=O)N2CCCCC2)cn1)C(N)=O (stereo unspecified)
  A = -2%	B = nt	C = 0%	D = nt	E = nt	F = nt
[25] COc1ccc(NC(=S)Nc2ccc(Oc3ccccc3)cc2)cc1
  A = -3%	B = 23µM*	C = -1%	D = -1%	E = 1%	F = 15%
[26] O=C(NC(=S)Nc1ccc(Oc2ccccc2)cc1)c1ccc(Cl)cc1
  A = -3%	B = 26µM*	C = 1%	D = -20%	E = -1%	F = 1%
[27] CCNC(=S)Nc1ccc(Oc2ccccc2)cc1
  A = -1%	B = -15%	C = -1%	D = -18%	E = -1%	F = nt
[28] Cc1ccc(C(=O)NC(=S)Nc2ccc(Oc3ccc(Cl)cc3)cc2)cc1
  A = 1%	B = ?	C = -1%	D = -2%	E = 2%	F = -1%
[29] COc1ccc(C(CC(=O)O)NC(=O)Cc2ccccc2)cc1OC (stereo unspecified)
  A = -4%	B = 14%	C = 0%	D = 12%	E = -4%	F = -5%
[30] COc1ccc(C(CC(=O)O)c2cc(OC)c(OC)c(OC)c2)cc1OC (stereo unspecified)
  A = 32µM*	B = 12%	C = 0%	D = -1%	E = -1%	F = nt
[31] Cc1ccc(S(=O)(=O)c2nc(-c3ccc(F)cc3)oc2N2CCOCC2)cc1
  A = nt	B = -24%	C = 0%	D = -2%	E = -4%	F = -17%
[32] CC(C)(C)CN1CCN(Cc2nc(-c3ccc(F)cc3)cs2)CC1CCO (stereo unspecified)
  A = -4%	B = 21µM*	C = 0%	D = -10%	E = 9%	F = 24%
[33] CCN(CC)c1ccc2cc(NC(=O)CCC(=O)O)c(=O)oc2c1
  A = -15%	B = 12µM*	C = -2%	D = ?	E = -10%	F = ?
[34] O=c1[nH]c(/C=C/c2ccccc2OC(F)F)nc2c1cnn2-c1ccccc1
  A = 11µM*	B = ?	C = 3%	D = 14%	E = 1%[46.1 µM]	F = -2%
[35] CC(C)c1ccc(/C=c2\sc3nc(-c4ccncc4)nn3c2=O)cc1
  A = -1%	B = -17%	C = 0%	D = 2%	E = -6%	F = -4%
[36] Cc1ccc(/C=c2\sc3nc(-c4cccnc4)nn3c2=O)cc1
  A = 14µM*	B = 3%	C = 4%	D = 12%	E = 18%	F = -15%
[37] NC(=O)C1(Nc2ccc(C(=O)O)cc2)CCCC1
  A = 11µM*	B = 2%	C = 1%	D = 12%	E = -2%	F = nt
[38] Nc1cc(-c2ccc(Br)cc2)nn1Cc1ccccc1
  A = 2%	B = 10µM*	C = 3%	D = -11%	E = 0%	F = -9%
[39] Nc1cc(-c2cccc(Br)c2)nn1Cc1ccccc1
  A = 2%	B = 2%	C = 4%	D = -8%	E = -3%[46.1 µM]	F = -6%
[40] N#C/C(=C\c1ccc[nH]1)C(=O)Nc1ccccc1F
  A = -2%	B = ?	C = 11µM*	D = -9%	E = 1%	F = -56%
[41] CCCCOc1ccc(CC(=O)NOC)cc1
  A = 2%	B = nt	C = nt	D = nt	E = nt	F = nt
[42] CCc1ccc(/C=C/c2c([N+](=O)[O-])c(=O)n(C)c(=O)n2C)cc1
  A = -2%	B = 13µM*	C = ?	D = ?	E = -3%	F = ?
[43] Cn1c(/C=C/c2ccc(Cl)cc2Cl)c([N+](=O)[O-])c(=O)n(C)c1=O
  A = 0%	B = 26µM*	C = ?	D = ?	E = -14%	F = ?

Whole records, quoted from the list. Screens in order: ClpP mod | Nrf2 inh | Nrf2 ARE act | A549 viability | TCR act | miR-21 reporter
Listed for N#C/C(=C\c1ccc[nH]1)C(=O)Nc1ccccc1F : -2% | ? | 11µM* | -9% | 1% | -56%
Listed for COc1ccc(C(CC(=O)O)NC(=O)Cc2ccccc2)cc1OC (stereo unspecified) : -4% | 14% | 0% | 12% | -4% | -5%
Listed for COc1ccc(C(CC(=O)O)c2cc(OC)c(OC)c(OC)c2)cc1OC (stereo unspecified) : 32µM* | 12% | 0% | -1% | -1% | nt
Listed for NC(=O)C1(Nc2ccc(C(=O)O)cc2)CCCC1 : 11µM* | 2% | 1% | 12% | -2% | nt

Assay outcomes from PubChem.
